The structures appear in SMILES notation. Some of the results follow. The source made the active and inactive calls. Calls come from the whole dose curve; as a rule, active = well fitted activation curve with a large enough effect (not every such curve was filed as active); inconclusive = small, poorly fitted or top-dose-only effect, or another doubt; inactive = no such curve, though single readings can be large or run the other way.

A short description of this experiment: Ubiquitin-GFP Assay. The conditions noted are these: Ubiquitin-GFP reporter cells, proteasome inhibition, GFP fluorescence, untreated = 0%, 10 µM MG-132 = 100%; at 45.9 µM unless noted. The text has this: NIH Chemical Genomics Center [NCGC]
NIH Molecular Libraries Screening Centers Network [MLSCN]
The ubiquitin-proteasome pathway is present within all eukaryotic cells and plays roles in normal cellular functions and disease-related dysfunction. Proteins are tagged with a poly-ubiquitin chain that targets them for the proteasome, a multimeric protease, that degrades the protein into peptides and free ubiquitin. The proteasome has a key role in regulating cell cycle and growth and is known to control the levels of cyclins and CDK inhibitors as well as tumor suppressor proteins. Additionally, the activation of NF- B is controlled by ubiquitin-labeling and degradation of the inhibitory protein I B . […] With this in mind, proteasome inhibitors such as MG-132 and PS-341 have been used to inhibit tumor cell growth.
A cellular assay for ubiquitin-proteasome function was used to find chemical probes of this pathway. The assay used an ubiquitin-GFP construct expressed in U2OS cells (BioImage). Under basal conditions little GFP can be detected as it is degraded by the proteasome. However, treatment of the cells with a proteasome inhibitor such as MG-132 results in a rise in GFP levels that can be detected in as little as four hours. We used the Acumen-Explorer laser plate cytometer having a 488 nm laser as an excitation light source to detect the GFP. Compounds were screened in 1536-well plates using qHTS with a concentration-titration series range that varied from 46 uM to 2.9 nM.
NCGC Assay Protocol Summary:
Cells (U20S ps 2042) expressing ubiquitin (G76V-GFP) were maintained in DMEM with Glutamax-1 and high glucose, 10% FBS, 1% (v/v) penicillin-streptomycin, 0.5 mg/mL Geneticin (G418). The cells were seeded in 1536-well plates using a solenoid-based dispenser at 700 cells/5ul in DMEM medium with Glutamax-1 and high glucose containing 0.5% FBS, w/o phenol red, 25 mM HEPES. The plates were incubated at 37 °C/5% CO2 overnight. Then 23 nl of MG-132 in DMSO was added to the control wells at a final concentration of 10 uM. Next, 23 nL of library compounds in DMSO were added to the sample wells. The plates were incubated for 4 hrs at 37 °C/5% CO2. Following this incubation the plates were read on the Acumen using a cell object definition of 15 to 100 um in width and depth and a window of Total Intensity of between 77,200 and 2,720,000 FLU to enumerate GFP-expressing cells.
The %Activity was determined from the basal and MG-132 treated control wells. %Activity was determined by normalizing to the difference in signal between basal cells (0% Activity) and cells incubated with 10 uM of the proteasome inhibitor MG-132 (100% Activity). Concentration-response curves were fitted to the signals arising from the GFP fluorescence.
Assay Protocol Summary Table
Sequence Parameter Value Description
2. Time O/N 37C incubation
4. Compound 23 nL Libraries (46 uM to 2.9 nM)
5. Time 4 hr 37C incubation
6. Detector Acumen Total Intensity, GFP fluorescence (488 ex/515 em)
Keywords: NIH Roadmap, MLSCN, MLI, MLSMR, BioImage, proteasome, ubiquitin-GFP, qHTS, NCGC
For the compound `N/C(=N\O)c1c(N)no[n+]1[O-]`, the activation (GFP accumulation) is inactive: -2.6%.
In the case of `Fc1ccccc1NC1CCN(Cc2ccccc2)CC1`, the activation (GFP accumulation) is inactive: -19.5%.
For the compound `CCC(CO)(C(=O)OC1CN2CCC1CC2)c1ccccc1` (stereo not drawn), the activation (GFP accumulation) is inactive: -4.98%.
The result for `O=C(O)C1(Nc2ccccc2)CCN(Cc2ccccc2)CC1` reads inactive: -0.299% [at 9.17 µM]; that for `CCOc1ncccc1C(=O)NCC1(N2CCOCC2)CCCCC1`, inactive: -3.69%; that for `O=C(OC1CN2CCC1CC2)C1c2ccccc2Oc2ccccc21` (stereo not drawn), inactive: 2.22%.
Turning to `N#CC1(Nc2ccccc2)CCN(CCc2ccccc2)CC1`, the activation (GFP accumulation) was inactive: -20.9%.
The result for `NC1CCCCC1.NP(=O)(O)N(CCCl)CCCl` reads inactive: -6.15% [at 9.17 µM].
